Target: P2X purinoceptor 7 (Homo sapiens, UniProt Q99572)
Assay: Ca2+ flux Assay: 1321N1 cells expressing the recombinant human or rat P2X7 channel was cultured in HyQ DME/(HyClone/Dulbecco's Modified Eagle Medium) high glucose supplemented with 10% Fetal Bovine Serum (FBS) and appropriate selection marker. Cells were seeded at a density of 25000 cells/well (96-well clear bottom black walled plates) in 100 μl volume/well. On the day of the experiment, cell plates were washed with assay buffer, containing (in mM): 130 NaCl, 2 KCl, 1 CaCl2, 1 MgCl2, 10 HEPES, 5 glucose; pH 7.40 and 300 mOs. After the wash, cells were loaded with the Calcium-4 dye (Molecular Device) and incubated in the dark for 60 minutes. Test compounds were prepared at 250× the test concentration in neat DMSO. Intermediate 96-well compound plates were prepared by transferring 1.2 μL of the compound into 300 μL of assay buffer. A further 3× dilution occurred when transferring 50 μL/well of the compound plate to 100 μL/well in the cell plate. Cells were incubated with test compounds and dye for 30 minutes. Calcium dye fluorescence was monitored in FLIPR as the cells were challenged by adding 50 μL/well of BzATP (final concentration is 250 μM BzATP (human and rat)). The fluorescence change was measured 180 seconds after adding the agonist.
Type: cell-based

Amino acid sequences for entries named in this document (tags omitted). A change or cut given only in a name is not applied to a line headed by its entry.
UniProt Q99572: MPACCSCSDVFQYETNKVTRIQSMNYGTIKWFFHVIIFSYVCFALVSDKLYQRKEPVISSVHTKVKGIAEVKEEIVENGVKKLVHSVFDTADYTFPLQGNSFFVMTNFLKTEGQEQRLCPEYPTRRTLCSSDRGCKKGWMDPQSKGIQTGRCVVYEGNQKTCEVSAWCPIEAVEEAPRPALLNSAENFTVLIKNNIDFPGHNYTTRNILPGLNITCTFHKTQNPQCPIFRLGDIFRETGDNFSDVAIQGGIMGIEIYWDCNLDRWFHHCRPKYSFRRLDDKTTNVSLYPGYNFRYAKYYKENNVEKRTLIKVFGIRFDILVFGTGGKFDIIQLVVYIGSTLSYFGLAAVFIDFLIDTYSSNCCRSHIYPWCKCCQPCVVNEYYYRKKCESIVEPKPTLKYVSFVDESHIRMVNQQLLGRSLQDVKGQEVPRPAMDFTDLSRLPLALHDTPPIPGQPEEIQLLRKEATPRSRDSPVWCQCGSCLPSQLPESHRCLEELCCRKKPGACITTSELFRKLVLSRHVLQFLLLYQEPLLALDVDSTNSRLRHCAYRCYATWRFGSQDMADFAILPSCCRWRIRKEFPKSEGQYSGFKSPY

`Cc1nc2c(c(-c3ccn[nH]3)n1)CC(C)N(C(=O)c1cccc(OC(F)(F)F)c1F)C2` (stereo unspecified) was tested, and the IC50 was > 10 µM.

Source: ChEMBL document CHEMBL5726042, “P2X7 modulators” (2017)
